{"source": "patent US12692267B2", "about": "(Madera Therapeutics, LLC, priority 2019, dated 2026)", "molecular_target": "recombinant human caseinolytic peptidase hClpP (Homo sapiens, UniProt Q16740)", "assay": "hClpP peptide hydrolysis assay (Ac-WLA-AMC)", "conditions": "1 uM, Protocol 2"}
{"smiles": "O=C1C2=C(CCN(Cc3ccccc3)C2)N2CCN=C2N1Cc1ccc(F)cc1F", "note": "[Ex. 60, 11-benzyl-7-[(2,4-difluorophenyl)methyl]-2,5,7,11-tetraazatricyclo[7.4.0.0^2,6]trideca-1(9),5-dien-8-one, reference compound]", "values": [{"measurement": "Time course of hClpP activity", "result": "time-dependent increase in coumarin fluorescence release"}]}
